Experimental data reported in paper doi:10.1101/2024.09.21.614250 (bioRxiv, 2024).

Target: T1, huPDL2^ECD-huFc (human, UniProt Q9BQ51 20-220)
T1 sequence: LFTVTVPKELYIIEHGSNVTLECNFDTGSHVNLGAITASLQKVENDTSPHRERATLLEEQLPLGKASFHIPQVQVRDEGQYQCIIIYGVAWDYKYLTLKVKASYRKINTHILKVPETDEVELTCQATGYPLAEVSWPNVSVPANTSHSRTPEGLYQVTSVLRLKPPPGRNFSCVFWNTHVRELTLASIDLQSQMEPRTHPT
Experiment: BLI

B1: huPD1^ECD-His (domain or fragment)
chain: LDSPDRPWNPPTFSPALLVVTEGDNATFTCSFSNTSESFVLNWYRMSPSNQTDKLAAFPEDRSQPGQDCRFRVTQLPNGRDFHMSVVRARRNDSGTYLCGAISLAPKAQIKESLRAELRVTERRAEVPTAHPSPSPRPAGQFQTLV
fold higher affinity (Kd) than the mouse PD1:PDL2 pair: 24 fold
